Test results from ChEMBL document CHEMBL1135410, “Adenine nucleotide analogues locked in a Northern methanocarba conformation: enhanced stability and potency as P2Y(1) receptor agonists” (J Med Chem, 2002).

Amino acid sequences for entries named in this document (tags omitted). A change or cut given only in a name is not applied to a line headed by its entry.
UniProt P47900: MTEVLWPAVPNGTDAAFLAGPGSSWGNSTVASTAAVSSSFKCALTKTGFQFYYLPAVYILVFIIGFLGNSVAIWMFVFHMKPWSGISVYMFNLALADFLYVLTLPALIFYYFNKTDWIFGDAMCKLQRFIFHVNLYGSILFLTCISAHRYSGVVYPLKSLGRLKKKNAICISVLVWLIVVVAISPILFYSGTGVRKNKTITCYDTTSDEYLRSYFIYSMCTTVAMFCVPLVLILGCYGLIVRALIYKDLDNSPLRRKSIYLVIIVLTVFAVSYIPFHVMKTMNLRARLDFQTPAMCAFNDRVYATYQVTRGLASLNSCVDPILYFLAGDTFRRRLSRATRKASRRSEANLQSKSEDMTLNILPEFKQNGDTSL

Biological target: P2Y purinoceptor 1 (Homo sapiens, UniProt P47900)
Assay: Accumulation of inositol phosphate in 1321N1 astrocytoma cells expressing human P2Y1 purinoceptor
Assay type: cell-based
Method in brief: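 Inositol phosphate accumulation measured in 1321N1 human astrocytoma cells stably expressing human P2Y1, P2Y2, P2Y4 or P2Y11 receptor. Full concentration–effect curves, repeated in at least three separate experiments run in duplicate or triplicate. EC50 from four-parameter logistic fit. Relative efficacy (%) taken against a maximal effective concentration of UTP or UDP in the same experiment.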

EC50: 6.4 nM
Structure (SMILES): CSc1nc(N)c2ncn([C@@H]3O[C@H](COP(=O)(O)OP(=O)(O)O)[C@@H](O)[C@H]3O)c2n1
